Earlier results on one compound are cited in patent US12180215B2, “Substituted pyrrolo[3,4-d]imidazoles as JAK inhibitors” (HENAN MEDINNO PHARMACEUTICAL TECHNOLOGY CO., LTD., priority 2019, dated 2024).

Amino acid sequences for entries named in this document (tags omitted).
UniProt P29597, whole entry, species assumed: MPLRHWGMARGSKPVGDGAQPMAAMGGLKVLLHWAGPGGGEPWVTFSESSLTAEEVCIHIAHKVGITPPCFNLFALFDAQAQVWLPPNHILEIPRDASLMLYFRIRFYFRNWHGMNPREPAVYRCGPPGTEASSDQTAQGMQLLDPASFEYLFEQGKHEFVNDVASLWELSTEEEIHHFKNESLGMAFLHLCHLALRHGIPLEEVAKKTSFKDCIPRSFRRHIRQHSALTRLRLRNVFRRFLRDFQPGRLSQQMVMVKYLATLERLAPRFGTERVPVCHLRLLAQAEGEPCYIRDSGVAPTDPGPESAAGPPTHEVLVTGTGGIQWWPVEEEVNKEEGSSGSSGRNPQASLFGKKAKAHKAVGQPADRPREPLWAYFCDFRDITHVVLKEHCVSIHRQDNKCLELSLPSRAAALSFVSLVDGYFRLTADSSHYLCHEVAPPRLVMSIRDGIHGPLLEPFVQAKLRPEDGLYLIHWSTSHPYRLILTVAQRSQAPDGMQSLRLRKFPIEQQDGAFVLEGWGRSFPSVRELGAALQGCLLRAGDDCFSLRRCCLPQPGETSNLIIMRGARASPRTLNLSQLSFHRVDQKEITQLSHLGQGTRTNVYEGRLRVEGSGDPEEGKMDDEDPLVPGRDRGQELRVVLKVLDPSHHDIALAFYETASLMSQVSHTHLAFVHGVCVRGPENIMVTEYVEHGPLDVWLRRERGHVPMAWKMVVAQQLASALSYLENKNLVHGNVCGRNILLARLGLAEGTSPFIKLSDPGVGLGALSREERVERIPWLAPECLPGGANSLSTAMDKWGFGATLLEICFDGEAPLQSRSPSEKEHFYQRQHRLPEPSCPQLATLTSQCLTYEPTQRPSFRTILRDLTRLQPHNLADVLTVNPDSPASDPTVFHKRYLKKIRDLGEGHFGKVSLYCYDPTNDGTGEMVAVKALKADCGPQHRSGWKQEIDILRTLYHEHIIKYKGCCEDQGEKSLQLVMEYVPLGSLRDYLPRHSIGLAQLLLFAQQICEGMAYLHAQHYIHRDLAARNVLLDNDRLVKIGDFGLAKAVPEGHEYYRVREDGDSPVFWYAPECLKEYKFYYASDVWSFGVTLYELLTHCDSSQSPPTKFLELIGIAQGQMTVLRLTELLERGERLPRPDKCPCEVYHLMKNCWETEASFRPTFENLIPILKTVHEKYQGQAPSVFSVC

This series has as its target TYK2 (Homo sapiens, UniProt P29597). Particulars: background section; cited from earlier work.

Structures are written as SMILES.

Take `O=C(Nc1nc2cccc(-c3ccc(CN4CCS(=O)(=O)CC4)cc3)n2n1)C1CC1` [reference compound]: the half-inhibitory concentration (IC50) is 116 nM.
